Structures are written as SMILES.

The experiment deals with T1, Probable G-protein coupled receptor 132 (Mus musculus) (UniProt Q9Z282).
T1 sequence (whole entry): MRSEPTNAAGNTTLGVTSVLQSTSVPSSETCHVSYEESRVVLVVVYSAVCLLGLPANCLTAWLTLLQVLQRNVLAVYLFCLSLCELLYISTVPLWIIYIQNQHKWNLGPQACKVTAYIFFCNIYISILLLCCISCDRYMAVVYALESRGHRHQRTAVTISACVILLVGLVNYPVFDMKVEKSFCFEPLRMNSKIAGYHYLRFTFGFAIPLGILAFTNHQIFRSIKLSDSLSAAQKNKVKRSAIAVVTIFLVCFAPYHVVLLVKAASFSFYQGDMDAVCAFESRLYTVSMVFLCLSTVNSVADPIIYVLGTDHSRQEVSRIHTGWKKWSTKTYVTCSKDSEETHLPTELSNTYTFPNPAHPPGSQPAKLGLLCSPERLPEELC
The experiment can be described thus: Agonist activity at G2A in capsaicin-induced mouse primary sensory neurons assessed as induction of TRPV1 sensitization by measuring increase in amplitude of calcium response at 100 nM preincubated with capsaicin for 30 sec followed by compound administration for 4 mins and measured 30 sec after second capsaicin addition by calcium imaging analysis relative to control. It counts as cell-based. As to conditions: Primary sensory neuron, filed as agonist, time 4.5 min.

`O=C(N[C@H](Cc1ccccc1)C(=O)O)c1cccc(OCc2cccnc2)c1`: the Activity was found to be 244%.
